Experimental data from patent publication US10219528B2 (Zinpro Corporation, priority 2016, dated 2019).
Like-named read-outs stand apart in the source and are kept apart here.

Legend:
[1] = cattle calves, 120 mg folic acid source per day for 14 days, comparison with no folic acid control group (FIG. 5)
[2] = Solubility test of folate precipitates suspended in water at pH 7.0, filtered, insoluble solid weighed; type: physicochemical
Excerpt: In the parent application is was noticed that when soluble metal salts were mixed with folic acid there would be a precipitate forming after the addition of the metal salt. This precipitate was isolated and its solubility measured. According to the following procedure: The precipitates were suspended in water and the pH was adjusted to 7.0 with dilute HCl. […] The solids were dried and weighed to determine the mass of insoluble product. Very similar molar amounts of folic acid are used in this procedure.

[3] = in vivo
Excerpt: The animals were separated into groups and housed in a barn with access to a pasture. The dosing regime was as follows. […] The sheep were fed the test feeds for fourteen (14) days.
Example 22 is a sheep study using the protocol of Example 20 but with the Mn and iron mixtures of Example 5 and 7, respectively. […] In this test the ewes were fed the concentrate metal folate mixture dried without any carrier but mixed on ground corn for feeding.
The liquid mixtures were then sprayed directly on ground corn.

Substance: Copper Folate Mixture [Example 3]
- blood serum folic acid change [1]: changed significantly for the positive

Substance: Copper folate
- Insoluble Mass [2]: 4.09 g
- Insoluble % ([2]; pH 7): 98%

Substance: Manganese folate
- Insoluble Mass ([2]; suspended in 100 mL water, pH adjusted to 7.0, stirred, filtered, solid dried and weighed, about 3 g folate equivalents (6.8 mmols)): 3.64 g
- Insoluble % ([2]; suspended in water at pH 7.0, stirred, filtered, solid dried and weighed): 98%
- Insoluble % ([2]; suspended in water at pH 7.0, stirred, filtered, solid dried and weighed, listed as Manganese folate): 98%

Substance: Manganese Folate Mixture [Example 25]
- serum results (effectiveness) [3]: effectiveness can be achieved without a carrier

Substance: Zinc folate
- Insoluble Mass [2]: 3.70 g

Substance: Zinc Folate Mixture [Example 24]
- serum results (effectiveness) [3]: effectiveness can be achieved without a carrier
